Screening results as filed in PubChem BioAssay.
Compounds with a hit are over-represented: about 4.2% of the library has one in this group of screens.
HDAC3 inhib = human HDAC3 inhibition. recombinant HDAC3, fluorogenic peptide/trypsin coupled, fluorescence. inhibition, % at 8.3 µM. AID 2718. O15379. 0.15% of 320,000 active; in the data active means inhibition above about 26%, passing the limit was not always enough; inconclusive means no clear call, values can overlap the other calls
Yeast UUG start = modulators of start codon recognition fidelity in yeast; S. cerevisiae UUG-firefly luciferase reporter, luminescence/redox ratio; AID 602363; 350,000 tested, 0.13% active; activity score, % at 18.7 µM;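 active = replicate mean at a twofold rise or more, about +100% in these data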;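 also: firefly luciferase made from a UUG start codon reports start codon fidelity; reporter light over untreated wells divided by growth signal over untreated wells; some hits fall short of that in this replicate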
MC4R antag cAMP = antagonists of human melanocortin 4 receptor (MC4R). P32245. MC4R-expressing cells, MTII-stimulated cAMP, LANCE TR-FRET. inhibition, % at 6.5 µM. 0.48% of 360,000 active. AID 540295;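 active means inhibition above its plate's cutoff, the mean of tested wells on that plate plus 3 SD, cut at about 29% in these data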;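 further: 0% = Melanotan II alone and 100% = Melanotan II plus saturating MCL0020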
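System: U2OS-MC4R stable cell line; Technique: Eu-cAMP/anti-cAMP TR-FRET, emission 671 nm; Repeats: single well per compound; Also added: Melanotan II; Dosing: one concentration, 6.5 µM nominal; Schedule: 30-min compound, 1-h challenge, 1-h detection, room temperature.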
NALP1 yeast inh = blocks the NALP1 inflammasome reconstituted in yeast; AID 2071; S. cerevisiae NALP1/ASC/caspase-1 growth, X-gal OD620, 72 h; 0.61% of 280,000 active; inhibition, % at 10 µM; in the data active means inhibition mostly above about 24%, no sharp cut-off; inactive means mostly below about 32%
MC4R barr agon = activates human MC4R beta-arrestin recruitment; U2OS MC4R beta-arrestin complementation, luminescence; percent of melanotan II response, DMSO zero; AID 540308; P32245; activation, % at 8.9 µM; 0.98% of 360,000 active;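 active means activation above a per-plate cutoff, the mean activation of sample wells on that plate plus 3 SD, cut at about 8% in these data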
ALR inh = inhibitors of human sulfhydryl oxidase ALR; inhibition, % (no concentration beside the values); AID 485317; purified ALR, DTT oxidation, H2O2 HRP-luminol luminescence; 290,000 tested, 3.8% active; P55789;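 active means mean and each replicate at 75% or more; inconclusive means only one of the two met; inactive means neither met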;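 further: stock transfer was 7.5 nL into about 7.5 µL; 0% = neutral wells and 100% = wells with inactivated enzyme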
An asterisk follows results filed as active; ? = inconclusive; . = no result.

Short forms: A = HDAC3 inhib; B = Yeast UUG start; C = MC4R antag cAMP; D = NALP1 yeast inh; E = MC4R barr agon; F = ALR inh
compound: C[C@@H]1CCCCO[C@H](CN(C)Cc2ccncc2)[C@H](C)CN([C@H](C)CO)C(=O)c2cc(NC(=O)c3ccccc3)ccc2O1
  A: .; B: -2; C: .; D: .; E: .; F: .

compound: CC(=O)NN1C(=O)/C(=C\c2ccc(O)cc2)SC1=S
  A: -3; B: -12; C: -17; D: -3; E: 0; F: 99*

compound: COc1cc(/C=C2\SC(=S)N(c3cccnc3)C2=O)ccc1O
  A: 2; B: .; C: 2; D: .; E: -3; F: -1

compound: COc1cc(/C=C2\SC(=S)N(NC(=O)c3cccnc3)C2=O)ccc1O
  A: 16; B: .; C: -16; D: .; E: -2; F: 99*

compound: O=C(NN1C(=O)/C(=C/c2cccc(O)c2)SC1=S)c1ccccc1O
  A: 8; B: -20; C: -2; D: 13; E: -1; F: 99*

compound: CC(=O)NN1C(=O)/C(=C\c2ccc(C)cc2)SC1=S
  A: -5; B: -16; C: 3; D: 4; E: -2; F: -4

compound: COc1cc(/C=C2\SC(=S)N(NC(=O)c3ccc(O)cc3)C2=O)ccc1O
  A: -1; B: .; C: 0; D: -1; E: -4; F: 99*

compound: O=C(N[C@@H]1CC[C@H](CCNC(=O)C2CCCCC2)O[C@H]1CO)c1ccncc1
  A: .; B: -12; C: .; D: .; E: .; F: .

compound: C[C@@H]1CN([C@H](C)CO)C(=O)c2cc(-c3cccc(F)c3)cnc2O[C@@H]1CN(C)Cc1cccnc1
  A: .; B: -9; C: .; D: .; E: .; F: .

compound: Cc1noc(C)c1NC(=O)N(C)C[C@H]1OCCCC[C@@H](C)Oc2ccc(N(C)C)cc2C(=O)N([C@@H](C)CO)C[C@H]1C
  A: .; B: 2; C: .; D: .; E: .; F: .

The results go on:
Short forms: A = HDAC3 inhib; B = Yeast UUG start; C = MC4R antag cAMP; D = NALP1 yeast inh; E = MC4R barr agon; F = ALR inh
compound: C[C@@H]1CN([C@H](C)CO)S(=O)(=O)c2ccc(C3=CCCCC3)cc2O[C@@H]1CN(C)Cc1ccccc1F
  A: .; B: -1; C: .; D: .; E: .; F: .

compound: O=C(NN1C(=O)/C(=C/c2ccc(O)c(O)c2)SC1=S)c1ccccc1
  A: 14; B: -3; C: 5; D: 0; E: -4; F: 99*

compound: COc1cccc(/C=C2\SC(=S)N(NC(=O)c3ccncc3)C2=O)c1
  A: 9; B: -18; C: -2; D: -16; E: -4; F: 96*

compound: O=C1/C(=C/c2ccc(O)c(O)c2)SC(=S)N1Nc1ccccc1
  A: .; B: .; C: -15; D: -10; E: -6; F: .

compound: O=C(NN1C(=O)/C(=C/c2cccs2)SC1=S)c1ccncc1
  A: 3; B: .; C: 14; D: -8; E: -1; F: -34

compound: Cc1cc(Nc2cccc(F)c2)nc(NCc2ccccc2)n1
  A: 14; B: .; C: 4; D: 72*; E: 1; F: -8

compound: Cc1cc(Nc2ccccc2)nc(NCc2ccccc2)n1
  A: 8; B: .; C: -1; D: 42; E: -1; F: 21

compound: COc1ccc(NS(=O)(=O)c2cccc(C(=O)NN=Cc3ccc(O)c(OC)c3)c2)cc1
  A: 0; B: -16; C: -14; D: .; E: 0; F: 36

compound: O=C(N/N=C/c1ccc(O)c(O)c1)c1cccc(S(=O)(=O)N2CCCC2)c1
  A: 2; B: -22; C: 0; D: .; E: 0; F: 99*

compound: COc1cc(/C=N/NC(=O)c2cccc(S(=O)(=O)N3CCCC3)c2)ccc1O
  A: 4; B: -5; C: 6; D: .; E: -2; F: 99*

An excerpt from above in order of the NALP1 yeast inh value, descending:
Short forms: A = HDAC3 inhib; B = Yeast UUG start; C = MC4R antag cAMP; D = NALP1 yeast inh; E = MC4R barr agon; F = ALR inh
compound: O=C(NN1C(=O)/C(=C/c2cccc(O)c2)SC1=S)c1ccccc1O
  A: 8; B: -20; C: -2; D: 13; E: -1; F: 99*

compound: COc1cc(/C=C2\SC(=S)N(NC(=O)c3ccc(O)cc3)C2=O)ccc1O
  A: -1; B: .; C: 0; D: -1; E: -4; F: 99*

compound: COc1cccc(/C=C2\SC(=S)N(NC(=O)c3ccncc3)C2=O)c1
  A: 9; B: -18; C: -2; D: -16; E: -4; F: 96*

Later entries
Short forms: A = HDAC3 inhib; B = Yeast UUG start; C = MC4R antag cAMP; D = NALP1 yeast inh; E = MC4R barr agon; F = ALR inh
compound: C[C@@H]1CN([C@@H](C)CO)C(=O)Cc2cc(N(C)C)ccc2O[C@H]1CN(C)C(=O)Nc1ccccc1
  A: .; B: -1; C: .; D: .; E: .; F: .

compound: CN(C)CCCNC(=O)C[C@@H]1CC[C@H](NS(=O)(=O)c2ccccc2)[C@@H](CO)O1
  A: .; B: 0; C: .; D: .; E: .; F: .

compound: C[C@H](CO)N1C[C@H](C)[C@H](CN(C)C(=O)Nc2cccc3ccccc23)Oc2ccc(NC(=O)Nc3ccc4c(c3)OCO4)cc2C1=O
  A: .; B: -10; C: .; D: .; E: .; F: .

compound: C[C@@H]1CN([C@H](C)CO)C(=O)c2cc(NC(=O)CCC(F)(F)F)ccc2O[C@@H](C)CCCCO[C@@H]1CN(C)Cc1ccccc1
  A: .; B: 20; C: .; D: .; E: .; F: .

compound: Cc1cccc(NC(=S)NC2CCSc3ccccc32)c1 (stereo not given)
  A: 1; B: -31; C: 2; D: 4; E: 5; F: 2

compound: S=C(NCc1ccccc1)NC1CCSc2ccccc21 (stereo not given)
  A: 0; B: -20; C: 3; D: 27*; E: 0; F: 2

compound: CCCN(C)C[C@H]1Oc2ncc(C#Cc3ccccc3OC)cc2C(=O)N([C@H](C)CO)C[C@H]1C
  A: .; B: 7; C: .; D: .; E: .; F: .

compound: O=C(NCc1ccccc1)c1nc[nH]c1C(=O)N1CCN(c2ccccc2)CC1
  A: 11; B: 10; C: 5; D: .; E: -1; F: 98*

compound: CC1CCN(C(=O)c2[nH]cnc2C(=O)NCc2ccccc2)CC1
  A: -2; B: -7; C: 10; D: .; E: -1; F: 5

compound: CN1CCc2cccc3c2[C@@H]1Cc1ccc(O)c(O)c1-3
  A: .; B: -29; C: -7; D: 86*; E: -1; F: .

Additional compounds follow.
Short forms: A = HDAC3 inhib; B = Yeast UUG start; C = MC4R antag cAMP; D = NALP1 yeast inh; E = MC4R barr agon; F = ALR inh
compound: COc1ccc2c(c1O)-c1ccccc1CCN(C)C2
  A: -9; B: -24; C: 2; D: -8; E: -1; F: 50

compound: O=[N+]([O-])c1ccc2[nH]c3c(c2c1)CCCC3
  A: 0; B: -10; C: -1; D: 24; E: -1; F: 98*

compound: CC(C)c1nc(=S)n(-c2ccccc2)[nH]1
  A: -1; B: .; C: -5; D: 3; E: 2; F: 90*

compound: CC(=O)Nc1nc(=S)n(-c2ccccc2)[nH]1
  A: ?; B: -9; C: 11; D: 14; E: -2; F: ?

compound: C[C@@H]1CN([C@@H](C)CO)S(=O)(=O)c2ccc(/C=C/c3ccccc3)cc2O[C@H]1CN(C)C(=O)NC1CCCC1
  A: .; B: 0; C: .; D: .; E: .; F: .

compound: CCOc1ccc(/C=C2\C(=O)c3ccccc3OC2c2ccccc2)cc1 (stereo not given)
  A: -4; B: -11; C: 5; D: 28*; E: 1; F: 3

compound: COc1ccc(/C=C2\C(=O)c3ccccc3OC2c2ccccc2)cc1 (stereo not given)
  A: -4; B: .; C: -1; D: 0; E: -2; F: -17

compound: CCN(CC)c1ccc(NC(=O)c2c(OC)cccc2OC)c(C)c1
  A: 2; B: -18; C: 20; D: -2; E: 1; F: 99*

compound: CCN(CC)c1ccc(NC(=O)c2cccc(OC)c2)c(C)c1
  A: -3; B: -6; C: -9; D: -12; E: -2; F: .

compound: CCN(CC)c1ccc(NC(=O)C2=CCN(S(=O)(=O)c3ccc(F)cc3)CC2)c(C)c1
  A: 11; B: 1; C: 3; D: 30; E: -2; F: 87*

Going on with the list:
Short forms: A = HDAC3 inhib; B = Yeast UUG start; C = MC4R antag cAMP; D = NALP1 yeast inh; E = MC4R barr agon; F = ALR inh
compound: COc1ccc(NC(=O)N(C)C[C@H]2Oc3ncc(C#CC(C)C)cc3C(=O)N([C@@H](C)CO)C[C@H]2C)cc1
  A: .; B: 17; C: .; D: .; E: .; F: .

compound: COc1cccc(-c2cc(NC=O)c3ncc(-c4ccc(C(C)=O)cc4)n3c2)c1
  A: .; B: -5; C: 2; D: .; E: 8.4*; F: .

compound: Cc1ccc(-c2cc(NC=O)c3ncc(-c4cccc(C(=O)N(C)C)c4)n3c2)cc1
  A: .; B: 6; C: -13; D: .; E: 4; F: .

compound: CN(C)C(=O)c1cccc(-c2cnc3c(NC=O)cc(-c4ccccc4N(C)C)cn23)c1
  A: .; B: -42; C: -33; D: .; E: 9.2*; F: .

compound: CC(=O)c1ccc(-c2cnc3c(NC=O)cc(-c4cccc(C(=O)N(C)C)c4)cn23)cc1
  A: .; B: 8; C: -1; D: .; E: 3; F: .

compound: COc1cccc(-c2cnc3c(NC=O)cc(-c4ccccc4)cn23)c1
  A: .; B: -2; C: -17; D: .; E: 3; F: .

compound: COc1cccc(-c2cnc3c(NC=O)cc(-c4ccccc4Oc4ccccc4)cn23)c1
  A: .; B: -19; C: 1; D: .; E: 8.8*; F: .

compound: C[C@@H]1CCCCO[C@H](CN(C)S(=O)(=O)c2ccc(Cl)cc2)[C@H](C)CN([C@@H](C)CO)C(=O)c2cc(NC(=O)c3ccncc3)ccc2O1
  A: .; B: 8; C: .; D: .; E: .; F: .

compound: COc1ccc(CCC(C)NCc2ccc(Cl)c(Cl)c2)cc1 (stereo not given)
  A: 0; B: -10; C: -4; D: .; E: 2; F: -6

Gathered by group, the entries above containing a Cl atom (2)
Short forms: A = HDAC3 inhib; B = Yeast UUG start; C = MC4R antag cAMP; D = NALP1 yeast inh; E = MC4R barr agon; F = ALR inh
compound: C[C@@H]1CCCCO[C@H](CN(C)S(=O)(=O)c2ccc(Cl)cc2)[C@H](C)CN([C@@H](C)CO)C(=O)c2cc(NC(=O)c3ccncc3)ccc2O1
  A: .; B: 8; C: .; D: .; E: .; F: .

compound: COc1ccc(CCC(C)NCc2ccc(Cl)c(Cl)c2)cc1 (stereo not given)
  A: 0; B: -10; C: -4; D: .; E: 2; F: -6
